Test results from publication PMC5471521, “Novel selective β1-adrenoceptor antagonists for concomitant cardiovascular and respiratory disease” (The FASEB Journal, 2017).

Sequences of proteins named here, by UniProt entry; tags and fusion partners are left off.
UniProt P08588, whole entry: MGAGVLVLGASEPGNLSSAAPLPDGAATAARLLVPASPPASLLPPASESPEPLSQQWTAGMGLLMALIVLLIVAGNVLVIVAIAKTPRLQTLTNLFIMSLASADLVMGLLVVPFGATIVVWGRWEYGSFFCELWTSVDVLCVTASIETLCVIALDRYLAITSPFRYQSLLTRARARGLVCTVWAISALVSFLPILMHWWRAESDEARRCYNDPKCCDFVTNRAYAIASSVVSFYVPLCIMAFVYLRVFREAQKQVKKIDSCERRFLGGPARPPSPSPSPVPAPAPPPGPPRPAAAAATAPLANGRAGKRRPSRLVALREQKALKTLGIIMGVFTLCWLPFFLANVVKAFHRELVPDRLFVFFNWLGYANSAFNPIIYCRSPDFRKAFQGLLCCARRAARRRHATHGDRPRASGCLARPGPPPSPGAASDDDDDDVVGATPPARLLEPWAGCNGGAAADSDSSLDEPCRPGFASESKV

Biological target: human β1-AR (Homo sapiens, UniProt P08588)
Experiment: 3H-CGP12177 whole-cell binding in CHO-β1 cells

Kd: 6.76 nM
SMILES: N#Cc1cc(OCCOCC2CC2)ccc1OCC(O)CNCCNC(=O)Nc1ccc(O)cc1 (stereo not shown) [LK204-545, reference compound]
